These results are taken from US20260124309A1, “STAT6 DEGRADERS AND USES THEREOF” (Kymera Therapeutics, Inc., priority 2023, published 2026).

Chains of the proteins cited; added tags and fusions are not shown. Residues count along the entry.
UniProt P42226, whole entry: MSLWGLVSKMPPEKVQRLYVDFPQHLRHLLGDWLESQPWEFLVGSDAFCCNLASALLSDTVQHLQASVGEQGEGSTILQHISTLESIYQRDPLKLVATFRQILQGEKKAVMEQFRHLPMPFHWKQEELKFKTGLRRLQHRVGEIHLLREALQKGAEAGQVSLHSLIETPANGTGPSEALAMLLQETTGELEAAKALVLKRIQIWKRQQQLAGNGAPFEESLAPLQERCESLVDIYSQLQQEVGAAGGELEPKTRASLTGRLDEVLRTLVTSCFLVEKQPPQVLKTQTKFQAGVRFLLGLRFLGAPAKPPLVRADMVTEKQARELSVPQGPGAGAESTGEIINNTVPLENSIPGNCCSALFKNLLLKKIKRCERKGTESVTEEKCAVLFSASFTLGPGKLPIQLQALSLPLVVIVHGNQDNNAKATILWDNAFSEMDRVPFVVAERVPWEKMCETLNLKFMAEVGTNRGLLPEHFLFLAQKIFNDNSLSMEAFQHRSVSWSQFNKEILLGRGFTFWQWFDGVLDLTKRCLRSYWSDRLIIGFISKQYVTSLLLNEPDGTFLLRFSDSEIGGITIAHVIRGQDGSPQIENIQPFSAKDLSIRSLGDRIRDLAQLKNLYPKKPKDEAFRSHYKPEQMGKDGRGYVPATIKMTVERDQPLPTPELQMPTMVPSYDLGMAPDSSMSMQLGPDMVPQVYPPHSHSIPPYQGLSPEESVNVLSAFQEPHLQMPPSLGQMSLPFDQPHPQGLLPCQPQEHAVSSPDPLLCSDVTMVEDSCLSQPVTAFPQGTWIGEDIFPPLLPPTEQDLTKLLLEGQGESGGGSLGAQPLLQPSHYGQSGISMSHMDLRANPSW
UniProt P42226, 123-632 limits assumed: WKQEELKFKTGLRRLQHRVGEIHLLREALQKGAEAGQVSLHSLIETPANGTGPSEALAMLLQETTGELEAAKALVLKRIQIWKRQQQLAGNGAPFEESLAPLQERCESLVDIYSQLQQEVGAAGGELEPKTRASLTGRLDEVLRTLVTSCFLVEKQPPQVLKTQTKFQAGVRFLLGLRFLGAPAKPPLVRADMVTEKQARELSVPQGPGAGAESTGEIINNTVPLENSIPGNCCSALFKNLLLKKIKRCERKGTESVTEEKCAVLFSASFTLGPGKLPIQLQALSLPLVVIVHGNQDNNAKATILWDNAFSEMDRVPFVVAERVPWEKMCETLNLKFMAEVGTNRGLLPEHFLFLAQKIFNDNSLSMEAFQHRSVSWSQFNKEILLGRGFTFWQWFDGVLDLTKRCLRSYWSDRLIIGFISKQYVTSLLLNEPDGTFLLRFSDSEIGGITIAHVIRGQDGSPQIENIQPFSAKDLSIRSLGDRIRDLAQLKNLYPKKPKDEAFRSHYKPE

A value given as a limit tells only on which side of the number the result lay.

One experiment deals with STAT6-HiBiT (Homo sapiens, UniProt P42226). The experiment is described as follows: STAT6 HiBiT degradation in A549 (STAT6-HiBiT) cells. Here is the method: Degradation of STAT6 in endogenously tagged STAT6-HiBiT A549 cells was quantitatively measured using the Nano-Glo HiBiT Lytic Detection System (Promega, 3040). A549 (STAT6-HiBiT) cells were seeded in 384-well plates with a density of 1.25k cells per well in 20 μl fresh media. Compounds were then added to the assay plates using the Apricot S3 with a final top concentration of up to 10 uM in a 4-fold dilution series with total of 10 doses. The assay plates were then incubated for 24 hours at 37° C. under 5% CO2. At the assay endpoint, 20 μL of Nano-Glo HiBiT Lytic Reagent was added to each well and agitated on a plate shaker at 300 rpm for 10 minutes at room temperature. Luminescence was read on PHERAStar FSX Instrument (Is integration time). The data was analyzed by GraphPad Prism and the dose dependent STAT6 degradation was fit using the four-parameter inhibitor vs. response nonlinear regression.
The letter codes for DC50 (nM) include: A (<1 nM): B (1-10 nM); C (>10-100 nM); D (>100-1000 nM); E (>1000 nM); and F (not tested). The letter codes for Dmax (%) include: A (>90%); B (>70-90%); C (>50-70%); D (<50%); and E (not tested).
A general note: HiBiT is a short tag that completes a luciferase, so light tracks the accessible tagged protein.

Experiment [1] addresses biotinylated truncated STAT6 (123-632)-avi (Homo sapiens, UniProt P42226). The experiment is described as follows: STAT6 HTRF binding assay. The following applies: read-out: STAT6 HTRF: Average IC50, 0.15 nM biotinylated truncated STAT6 (123-632)-avi, 20 nM fluorescein-labeled probe. Here is the method: HTRF binding assays were performed using 0.15 nM biotinylated truncated STAT6 (123-632)-avi purified from E. coli, 1× Streptavidin-terbium (CisBio) prepared by mixing SA-Tb in PPI detection buffer (CisBio), 20 nM proprietary fluorescein-labeled probe, and test compounds in assay buffer consisting of 50 mM HEPES-Na pH 7.5, 100 mM NaCl, 1 mM EDTA, 2 mM DTT, 0.1% Tween-20 with a final volume of 20 uL. Compound stocks were dissolved at 10 mM in 100% DMSO and 11 point titration with 3 fold serial dilution was performed in white, opaque 384 well microplates. Reaction plates were incubated at room temperature for 30 minutes. Plates were centrifuged at low rpm for 5 mins, and the ratio of fluorescence intensities were measured at emission wavelengths for fluorescein acceptor (520 nm) and terbium donor (495 nm) on Envision Plate reader. % Inhibition was calculated from the 520/495 ratio generated by using proprietary positive control compound for 100% inhibition and DMSO only reactions for 0% inhibition. Data was processed and dose response curves were generated using GraphPad Prism to determine the concentration required for inhibiting 50% of the HTRF signal (IC50).
The letter codes for IC50 (μM) include: A (<0.1 μM); B (0.1-1 μM); C (>1-10 μM); D (>10-100 μM); E (>100 μM); and F (not tested).
Background: TR-FRET usually uses a lanthanide donor and a delayed reading to cut background.

Usually DC50 stands for the midpoint of the concentration-degradation curve. For orientation: IC50 means the point on the concentration scale where inhibition reaches its midpoint.

On to `CN(C)C(=O)c1cc2c(-c3ccc(C4CCN(c5ccc(C6CCC(=O)NC6=O)cc5F)CC4)cc3F)cc(C3=CCCN(C(=O)CCn4ccnn4)C3)c(F)c2[nH]1` (single isomer, unassigned), for which the “STAT6 HiBiT degradation Dmax % 24 h” value at STAT6-HiBiT is “A (A (>90%))”. Besides, at STAT6-HiBiT (read-out: STAT6 HiBiT degradation DC50 (nM) 24 h), the DC50 was below 1 nM. Also, the half-inhibitory concentration (IC50) in experiment [1] is below 100 nM.
